Literature values in article PMC7395068, “The evolution of strategies to minimise the risk of human drug-induced liver injury (DILI) in drug discovery and development” (Archives of Toxicology, 2020).
Where two headings read alike, the source gives them in different places.

What was measured:
[1] = system: PHH; conditions: cited from earlier work
[2] = system: hLiMTs; conditions: cited from earlier work
[3] = system: HepG2 C3A spheroid, BSEP, Glu/Gal in HepG2 cells, bioactivation; conditions: cited from earlier work
[4] = system: THLE or HepG2 cells, isolated mitochondria, BSEP; conditions: cited from earlier work
[5] = system: THLE-Null and THLE-3A4 cells; conditions: In vitro Assay; ref Gustafsson 2014; cited from earlier work
[6] = in vivo; cited from earlier work
[7] = cited from earlier work
[8] = system: human hepatocytes; conditions: cited from earlier work
[9] = system: isolated mouse liver mitochondria; conditions: cited from earlier work
[10] = system: primary human hepatocytes, NIH3T3 fibroblasts, BSEP, CYP3A4; conditions: cited from earlier work
[11] = system: HepG2 cells, primary human hepatocytes; conditions: cited from earlier work
[12] = system: HepG2 cells; conditions: cited from earlier work
[13] = system: HepG2 cells; conditions: cited from earlier work; remark: listed apart in the source
[14] = system: PHH; conditions: cited from earlier work; remark: listed apart in the source
[15] = system: HepG2; conditions: cited from earlier work
[16] = read-out: Human plasma Cmax; total plasma Cmax.tot, median of 9 literature references; cited from earlier work
[17] = 2D PHH, ATP, IC50 < 100 × Cmax.tot, ref Proctor et al. 2017
[18] = hLiMTs, ATP, IC50 < 100 × Cmax.tot, ref Proctor et al. 2017

In the case of `O=C1CN(/N=C/c2ccc(-c3ccc([N+](=O)[O-])cc3)o2)C(O)=N1` [dantrolene], the “PHH/100xCmax, Proctor (2017)” value [1, 17] is given as “-VE”, the “hLiMTs/100xCmax, Proctor (2017)” value [2, 18] is given as “-VE” and the “Bayesian Machine Learning” value [3] is given as “+VE”. The “Bayesian Machine Learning DILI prediction, Williams (2019)” value [3] was “+VE”.

In the case of `CCN1C(=O)NC(c2ccccc2)C1=O` (centres unmarked) [ethotion], the “Bayesian Machine Learning” value [3] is listed as “-VE”.

In the case of `CC1=C(CC(=O)O)c2cc(F)ccc2/C1=C\c1ccc([S+](C)[O-])cc1` (centres unmarked) [sulindac], the “Partition Hybrid HRM Score” value [4] is given as “+VE”, the “Ro2 Hybrid HRM Score” value [4] is given as “+VE” and the THLE-Null/3A4 [5] is given as “-VE”.

In the case of `Nc1nc2ccc(OC(F)(F)F)cc2s1` [riluzole], the “DILI +VE (5-8), DILI -VE (-4)” value [6] is given as “+VE” and the “In vivo DILI” value [7] is given as “+VE”.

In the case of `Cc1nc2n(c(=O)c1CCN1CCC(c3noc4cc(F)ccc34)CC1)CCCC2` [risperidone], the “DILI +VE (5-8), DILI -VE (-4)” value [6] is listed as “+VE” and the DILI severity category [6] is listed as “vLess-DILI-Concern”.

For `C=C[C@H]1C[N@@]2CC[C@H]1C[C@@H]2[C@@H](O)c1ccnc2ccc(OC)cc12` [quinidine], the “Structural based (HCI)” value [8] is listed as “+VE”.

In the case of `Nc1cc(N2CCCCC2)nc(N)[n+]1[O-]` [minoxidil], the “Partition Hybrid HRM Score” value [4] is listed as “-VE”, the “Ro2 Hybrid HRM Score” value [4] is listed as “-VE” and the “Rule of Two hybrid HRM Score ≥3, Aleo (2019)” value [4] is listed as “-VE”.

For `CCC1(c2ccccc2)C(=O)NCNC1=O` [primidone], the “Structural based (HCI)” value [8] is given as “-VE”, the “Partition Hybrid HRM Score” value [4] is given as “-VE” and the “Ro2 Hybrid HRM Score” value [4] is given as “-VE”. The “In vivo DILI” value [7] was “-VE”.

For `CCN(CC)CC#CCOC(=O)C(O)(c1ccccc1)C1CCCCC1` (centres unmarked) [oxybutynin], the “Rule of Two hybrid HRM Score ≥3, Aleo (2019)” value [4] is given as “-VE”, the “PHH/100xCmax, Proctor (2017)” value [1] is given as “-VE” and the “hLiMTs/100xCmax, Proctor (2017)” value [2] is given as “-VE”. For the same molecule, the “Bayesian Machine Learning” value [3] was “-VE” and the “in vitro data EC20<=2uM” value [9] was “+VE”.

In the case of `Cc1cc2c(s1)Nc1ccccc1N=C2N1CCN(C)CC1` [olanzapine], the “DILI +VE (5-8), DILI -VE (-4)” value [6] is given as “+VE”, the DILI severity category [6] is given as “vLess-DILI-Concern” and the “Cellular toxicity (3T3 cells)” value [10] is given as “+VE”. For the same molecule, the “Combined Assay” value [10] was “-VE”, the “GSH adduct HML” value [10] was “+VE” and the Hepatocyte cellular toxicity [10] was “-VE”. The “MitoTox 3T3” value [10] was “-VE”, the “TDI CYP3A4” value [10] was “-VE” and the hBSEP inhibition [10] was “-VE”. For the same molecule, the “Bayesian Machine Learning” value [3] was “+VE”.

In the case of `Nc1nc(O)c2ncn(COC(CO)CO)c2n1` [ganciclovir], the “Ro2 Hybrid HRM Score, In vitro Assay” value [4] is listed as “-VE”.

In the case of `C=C[C@H]1C[N@@]2CC[C@H]1C[C@H]2[C@H](O)c1ccnc2ccc(OC)cc12` [quinine], the “Structural based (HCI)” value [8] is given as “+VE”.

For `CC(C)(O)c1ccccc1CC[C@@H](SCC1(CC(=O)O)CC1)c1cccc(/C=C/c2ccc3ccc(Cl)cc3n2)c1` [montelukast], the “Structural based (HCI)” value [8] is given as “-VE” and the “Ro2 Hybrid HRM Score” value [4] is given as “+VE”.

In the case of `CN(CCOc1ccc(CC2SC(=O)NC2=O)cc1)c1ccccn1` (centres unmarked) [rosiglitazone], the “Partition Hybrid HRM Score” value [4] is listed as “+VE”, the “Ro2 Hybrid HRM Score” value [4] is listed as “+VE” and the “Bayesian Machine Learning” value [3] is listed as “+VE”.

For `CN(C)c1ccc(O)c2c1C[C@H]1C[C@H]3[C@H](N(C)C)C(O)=C(C(N)=O)C(=O)[C@@]3(O)C(O)=C1C2=O` [minocycline], the “Partition Hybrid HRM Score” value [4] is listed as “-VE”.

In the case of `CS(=O)(=O)Nc1ccc([N+](=O)[O-])cc1Oc1ccccc1` [nimesulide], the “Structural based (HCI)” value [8] is given as “+VE” and the “in vitro data EC20<=2uM” value [9] is given as “+VE”.

In the case of `CCN(CC)CCNC(=O)c1cc(Cl)c(N)cc1OC` [metoclopramide], the “Structural based (HCI), In vitro Assay” value [8] is listed as “-VE”.

For `CCC[C@@H]1C[C@@H](C(=O)N[C@@H]([C@H]2O[C@H](SC)[C@H](O)[C@@H](O)[C@H]2O)[C@H](C)Cl)N(C)C1` [clindamycin], the “DILI +VE (5-8), DILI -VE (-4)” value [6] is given as “+VE”.

In the case of `N=C(N)NC(=O)c1nc(Cl)c(N)nc1N` [amiloride], the “Structural based (HCI)” value [8] is listed as “-VE” and the “Cluster 1-6 +VE Assay” value [11] is listed as “-VE”.

In the case of `Cl.N` [ammonium chloride], the “Structural based (HCI)” value [8] is given as “-VE”.

In the case of `CC(N)C(O)c1ccccc1` (centres unmarked) [phenylpropanolamine], the “Structural based (HCI), In vitro Assay” value [8] is given as “-VE”.

For `CN(Cc1cnc2nc(N)nc(N)c2n1)c1ccc(C(=O)N[C@@H](CCC(=O)O)C(=O)O)cc1` [methotrexate, reference compound], the “Combined Assay” value [10] is given as “-VE”.

For `CCN(CC)CCCC(C)Nc1c2ccc(Cl)cc2nc2ccc(OC)cc12` (centres unmarked) [quinacrine], the “Cluster 1-6 +VE Assay” value [11] is given as “+VE”.

In the case of `COc1cc(NC(C)CCCN)c2ncccc2c1` (centres unmarked) [primaquine], the “Cellular toxicity (3T3 cells)” value [10] is listed as “+VE”, the “Combined Assay” value [10] is listed as “-VE” and the “GSH adduct HML” value [10] is listed as “+VE”. The Hepatocyte cellular toxicity [10] was “-VE”, the “MitoTox 3T3” value [10] was “-VE” and the “TDI CYP3A4” value [10] was “-VE”.

For `COc1cc2c(c(OC)c1OC)-c1ccc(OC)c(=O)cc1[C@@H](NC(C)=O)CC2` [colchicine], the “DILI +VE (5-8), DILI -VE (-4)” value [6] is given as “-VE”, the DILI severity category [6] is given as “Ambiguous DILI-concern” and the “Structural based (HCI)” value [12] is given as “+VE”. For the same molecule, the “Structural based (HCI)” value [13] was “+VE” and the “Ro2 Hybrid HRM Score” value [4] was “-VE”.

In the case of `CC(=O)N1CCN(c2ccc(OCC3COC(Cn4ccnc4)(c4ccc(Cl)cc4Cl)O3)cc2)CC1` (centres unmarked) [ketoconazole, reference compound], the “Cytotoxicity PHH 48 hrs” value [14] is given as “+VE” and the “Cytotoxicity HepG2 48 hrs” value [15] is given as “+VE”.

For `C[C@]12C=CC(=O)C=C1CC[C@@H]1[C@@H]2[C@@H](O)C[C@@]2(C)[C@H]1CC[C@]2(O)C(=O)CO` [prednisolone], the “Cluster 1-6 +VE Assay” value [11] is listed as “-VE”.

In the case of `CCOC(=O)c1ncn2c1CN(C)C(=O)c1cc(F)ccc1-2` [flumazenil, reference compound], the “PHH/100xCmax, Proctor (2017)” value [1, 17] is listed as “-VE”, the “hLiMTs/100xCmax, Proctor (2017)” value [2, 18] is listed as “-VE” and the “Bayesian Machine Learning” value [3] is listed as “-VE”. The “Bayesian Machine Learning DILI prediction, Williams (2019)” value [3] was “-VE” and the THLE-Null/3A4 [5] was “-VE”.

In the case of `COc1cccc2c1C(=O)c1c(O)c3c(c(O)c1C2=O)C[C@@](O)(C(=O)CO)C[C@@H]3O[C@H]1C[C@H](N)[C@H](O)[C@H](C)O1` [doxorubicin], the “Combined Assay” value [10] is given as “+VE”.

For `NC(=O)C1CCN(CCCN2c3ccccc3Sc3ccc(Cl)cc32)CC1` [pipamazine], the “DILI +VE (5-8), DILI -VE (-4)” value [6] is given as “+VE”.

In the case of `NC[C@H]1O[C@H](O[C@H]2[C@H](O)[C@@H](O[C@H]3O[C@H](CO)[C@@H](O)[C@H](N)[C@H]3O)[C@H](N)C[C@@H]2N)[C@H](O)[C@@H](O)[C@@H]1O` [kanamycin], the “Cellular toxicity (3T3 cells)” value [10] is listed as “-VE”, the “Combined Assay” value [10] is listed as “-VE” and the “GSH adduct HML” value [10] is listed as “-VE”. For the same molecule, the Hepatocyte cellular toxicity [10] was “-VE”, the “MitoTox 3T3” value [10] was “-VE” and the “TDI CYP3A4” value [10] was “-VE”. The hBSEP inhibition [10] was “-VE”.

For `CN1c2ccccc2C(NCCCCCCC(=O)O)c2ccc(Cl)cc2S1(=O)=O` (centres unmarked) [tianeptine], the “In vivo DILI” value [7] is listed as “+VE”.

In the case of `CO[C@@]12[C@H](COC(N)=O)C3=C(C(=O)C(C)=C(N)C3=O)N1C[C@@H]1N[C@@H]12` [mitomycin], the “hLiMTs ATP <100uM” value [2] is listed as “+VE (key: +VE: IC50 threshold of 100 µM)” and the “in vitro data EC20<=2uM” value [9] is listed as “-VE”.

For `Cc1cccc(C)c1OCC(C)N` (centres unmarked) [mexiletine], the “Ro2 Hybrid HRM Score” value [4] is given as “-VE”.

In the case of `O=P1(N(CCCl)CCCl)NCCCO1` (centres unmarked) [cyclophosphamide, reference compound], the “Combined Assay” value [10] is listed as “-VE”.

In the case of `CCN1CCCC1CNC(=O)c1cc(S(N)(=O)=O)ccc1OC` (centres unmarked) [sulpiride], the THLE-Null/3A4 [5] is given as “-VE” and the “Cluster 1-6 +VE Assay” value [11] is given as “-VE”.

For `CS(=O)(=O)CCNCc1ccc(-c2ccc3ncnc(Nc4ccc(OCc5cccc(F)c5)c(Cl)c4)c3c2)o1` [lapatinib], the “Combined Assay” value [10] is given as “+VE” and the Cmax [16] is given as 11.6 µM.

For `O=C(O)Cc1ccccc1Nc1c(Cl)cccc1Cl` [diclofenac], the “Structural based (HCI)” value [8] is given as “+VE”, the “Bayesian Machine Learning” value [3] is given as “+VE” and the “Bayesian Machine Learning DILI prediction, Williams (2019)” value [3] is given as “+VE”. The “Cluster 1-6 +VE Assay” value [11] was “+VE” and the “in vitro data EC20<=2uM” value [9] was “+VE”.

In the case of `CC(CCc1ccccc1)NCC(O)c1ccc(O)c(C(N)=O)c1` (centres unmarked) [labetalol], the “Partition Hybrid HRM Score” value [4] is listed as “+VE” and the “Ro2 Hybrid HRM Score” value [4] is listed as “-VE”.

In the case of `CCCCC1C(=O)N(c2ccccc2)N(c2ccccc2)C1=O` [phenylbutazone], the “Structural based (HCI)” value [8] is listed as “+VE” and the “in vitro data EC20<=2uM” value [9] is listed as “+VE”.

For `Cn1c(=O)c2[nH]cnc2n(C)c1=O` [theophylline], the “Structural based (HCI)” value [12] is given as “+VE” and the “In vivo DILI” value [7] is given as “-VE”.

For `N[C@@H]1[C@H]2CN(c3nc4c(cc3F)c(=O)c(C(=O)O)cn4-c3ccc(F)cc3F)C[C@@H]12` [trovafloxacin], the “DILI in vitro assay prediction, Xu (2008)” value [8] is given as “+VE”.

For `CNCCC(Oc1ccc(C(F)(F)F)cc1)c1ccccc1` (centres unmarked) [fluoxetine], the “Ro2 Hybrid HRM Score” value [4] is listed as “-VE”.

For `CCCc1cc(=O)[nH]c(=S)[nH]1` [propylthiouracil], the “in vitro data EC20<=2uM” value [9] is given as “+VE”.
